Measured values taken from publication PMC7684765 (Journal of medicinal chemistry, 2020).

Test system: PTZ-induced seizures in zebrafish larvae
Experiment: Zebrafish PTZ-induced seizure model
Assay type: in vivo
Conditions: 10 μM

Row | SMILES | protection against PTZ-induced seizures (in words)
1 | C#CCNC1=CC(=O)c2ccccc2C1=O [2h] | did not significantly reduce distance traveled
2 | CC1=C(NCCC(C)(C)C)C(=O)c2ccccc2C1=O [5a, 2-((3,3-dimethylbutyl)amino)-3-methylnaphthalene-1,4-dione] | no protection
3 | CC1=C(NCCC(C)C)C(=O)c2ccccc2C1=O [5b, 2-(isopentylamino)-3-methylnaphthalene-1,4-dione] | no protection
